## Antibody variant affinities, Ab-14 light chain, assay 1

Target: peptide PDVDLGDISGINAS, taken from heptad repeat 2 (HR2) of SARS-CoV-2 spike.

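Phage display of a naive human antibody library on the peptide gave the parent. The library (AAYL50) carries one to three amino acid substitutions per variant, with no insertions or deletions. The scFvs were displayed on barcoded MATa yeast, the peptide on MATalpha yeast. Pairs that bind mate more often; barcode pairs of the diploids are counted by sequencing. A regression on co-assayed BCL2-family reference pairs converts the normalised counts of each replicate to an apparent Kd. Each pool was mated in three replicate cultures.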

Ab-14 is the parent antibody, in scFv form: VH, then three GGGGS repeats, then VL. The heavy chain is unchanged in all variants.
VH: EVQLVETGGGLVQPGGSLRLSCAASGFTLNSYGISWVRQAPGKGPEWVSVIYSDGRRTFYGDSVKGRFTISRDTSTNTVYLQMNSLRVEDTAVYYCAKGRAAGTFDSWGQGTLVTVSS
VL: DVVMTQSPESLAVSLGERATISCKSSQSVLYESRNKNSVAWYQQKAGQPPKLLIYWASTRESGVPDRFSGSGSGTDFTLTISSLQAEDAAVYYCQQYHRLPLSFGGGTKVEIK

Each variant is given by its three light chain CDRs, as the data file delimits them; those of the parent are KSSQSVLYESRNKNSVA, WASTRES, QQYHRLPLS.
The read-out is the apparent dissociation constant on a log10 scale (nM): the lower, the stronger.
The mean shown is taken over the replicates in which the pair was detected.
An entry "ND" has no value in the source: the pair was not observed among the diploids in that replicate. This suggests poor binding but is not conclusive.
Background: pairings of library AAYL50 with three empty control strains gave a value in 18% of cases (median 4.19, 5th percentile 2.99). Values in that range, when seen in few replicates, are hard to tell from nonspecific mating. Also given: how often the same scFv was detected with the empty control strains, with their mean in brackets.

CDR-L1,CDR-L2,CDR-L3,log10 Kd (nM) by replicate,"mean, log10 nM",empty controls
FSSSSVLYYSRNKNSVA,WASTRES,QQYHRLPLS,ND / 4.17 / 3.97,4.07,3 of 9 (4.71)
KSSTSVLYNSRNKNSVA,WASTRFS,QQYHRLPLS,2.07 / 1.91 / 2.55,2.18,1 of 9 (3.86)
KSSQSVLYESRNKNSVR,WVSTRES,QQYHRLWLS,ND / ND / ND,ND,2 of 9 (3.45)
KSSQSVLYESRQKNCVA,WASTRES,QQYRRLPLS,2.24 / 1.86 / 1.95,2.02,1 of 9 (3.82)
KSSQSVLYESRNKNDVA,WASTRES,YQYHRYPLS,3.75 / ND / ND,3.75,2 of 9 (4.51)
KSSQSVLVESRNNNSVA,WASTRES,QQYHRAPLS,1.02 / 1.18 / 1.16,1.12,1 of 9 (5.03)
KSSQSVLPESRNKNSVA,WASTRER,QQYHRMPLS,0.78 / 1.15 / 1.17,1.04,0 of 9
KSSQSVLYESRNKNSVA,WACTRES,QQYHRLPLS,3.18 / 3.07 / 3.22,3.15,4 of 9 (4.49)
KSVQSVLYEQRNKNSVA,WASTRES,QQYHRLPLS,1.95 / 1.77 / 2.30,2.01,3 of 9 (3.74)
KSSQTVLYTSRNKNSVA,WASTRES,QQYHRLPTS,ND / ND / ND,ND,0 of 9
KSSESVLYESRNKNSVA,NASTRES,QQYHRLQLS,0.98 / 1.06 / 1.11,1.05,2 of 9 (4.19)
KSSQSVCYESRNLNSVA,WASTRES,QQYHRMPLS,ND / ND / 4.94,4.94,1 of 9 (5.38)
KSSQSVLYESRNKCSVL,WASTRCS,QQYHRLPLS,ND / ND / ND,ND,1 of 9 (4.15)
KSSQSFLYYSRNKNSVA,WASARES,QQYHRLPLS,ND / 3.54 / 3.84,3.69,0 of 9
KSSQSVLYESRNKESVA,WASTRES,QQYHRWYLS,4.15 / ND / ND,4.15,0 of 9
KSMQSWLYESRNKNSVA,WASTRES,QQYHRLPLS,0.86 / 1.10 / 1.05,1.01,2 of 9 (4.95)
KSSQSVFYESRNKNSVA,WASTRES,QQYHREPQS,ND / ND / 3.33,3.33,0 of 9
KSSQSVLYESRNKNSVA,WAYTRES,QQYHRLNMS,4.09 / 3.12 / ND,3.61,1 of 9 (5.50)
KSSQSVLYESRNKNSVA,WASTRES,QQYHRLPNS,5.91 / ND / ND,5.91,4 of 9 (3.18)
KVSQSVLYESRNKNCVK,WASTRES,QQYHRLPLS,5.63 / 4.86 / 3.79,4.76,5 of 9 (4.69)
KSSKSVLYESQNSNSVA,WASTRES,QQYHRLPLS,0.37 / 0.59 / 0.56,0.51,2 of 9 (4.59)
KSSGSVWYESRDKNSVA,WASTRES,QQYHRLPLS,0.50 / 0.71 / 0.71,0.64,1 of 9 (4.28)
KSSQSVLYESRNKNSVA,WASTRES,LQYHRLPLS,2.15 / 1.72 / 2.15,2.01,1 of 9 (3.68)
KSSTPVLYESRGKNSVA,WASTRES,QQYHRLPLS,0.83 / 0.91 / 0.98,0.91,4 of 9 (3.79)
KSGQSKLGESRNKNSVA,WASTRES,QQYHRLPLS,0.69 / 1.04 / 0.85,0.86,2 of 9 (4.35)
KSSQSVLYESPNKNSYA,WASTRES,QQYARLPLS,3.31 / 3.77 / ND,3.54,0 of 9
KSSQSVTYESRNKNSVA,WASTRES,QQYHRVPNS,ND / ND / ND,ND,1 of 9 (2.79)
KSCQIVLYESRNKNSVA,WASTRES,QQYHRLPLS,ND / ND / ND,ND,1 of 9 (3.01)
KSSQSVLYRSRNKNSVA,VASTRES,QQGHRLPLS,2.80 / 3.78 / ND,3.29,0 of 9
KSSCSVLHMSRNKNSVA,WASTRES,QQYHRLPLS,2.02 / ND / 2.20,2.11,0 of 9
KSSQSVLYESMNKNSNA,WASTRES,QQYHRQPLS,5.81 / ND / 5.57,5.69,6 of 9 (4.17)
KSSQSVLIEANNKNSVA,WASTRES,QQYHRLPLS,0.76 / 0.99 / 1.10,0.95,1 of 9 (3.84)
KSRQSVLYESRNKNSVA,WASTRES,QQYHRLPDP,1.02 / 1.18 / 1.37,1.19,0 of 9
KSSQDVLYCSRNKNSVA,WASTRES,QQYHRLPLK,3.31 / 4.48 / ND,3.90,6 of 9 (4.72)
KSSQSVLYEERNKNSVA,WCSTRES,QQQHRLPLS,ND / 3.60 / ND,3.60,2 of 9 (4.24)
KKSQSVLYESRNKNTVA,WASTREK,QQYHRLPLS,ND / ND / ND,ND,0 of 9
CSSQSVLYESRNKNSVA,WAYTRES,QQYDRLPLS,ND / ND / 5.89,5.89,4 of 9 (3.84)
KDSQSVLDESRNKNSVA,WASTRES,QQYHRLPLW,1.39 / 1.49 / 1.54,1.48,0 of 9
KSSQNVLYESRNKNSVA,WASTGES,QQRHRLPLS,ND / ND / ND,ND,3 of 9 (3.57)
KSSQSVLYESRNKNSVA,WHVTRES,QQYHRLPLS,ND / ND / ND,ND,0 of 9
KSSQSRLYESRNKNSVA,WASTRES,QQDHRLPIS,2.96 / 5.24 / 4.11,4.10,4 of 9 (3.98)
KSSQSVLYESRNKTSVA,WAETRES,QVYHRLPLS,3.04 / 3.17 / 3.71,3.31,6 of 9 (4.25)
KSSQSVLYESRNSNSVA,WASTRES,QQYHRYPLS,1.48 / ND / 1.23,1.36,0 of 9
KCSQSVNYESRNKNLVA,WASTRES,QQYHRLPLS,3.37 / 3.45 / 4.33,3.72,5 of 9 (4.59)
KWSQSVLYESRNKNSVA,WASTRES,QQGYRLPLS,0.68 / 1.28 / 0.93,0.96,5 of 9 (4.37)
KSIQSVLYESRNKWSVA,WASTRES,QQYSRLPLS,2.42 / 2.58 / 2.48,2.49,1 of 9 (3.48)

Again, the first 7 entries without any signal:

CDR-L1	CDR-L2	CDR-L3	log10 Kd (nM) by replicate	mean, log10 nM	empty controls
KSSQSVLYESRNKNSVR	WVSTRES	QQYHRLWLS	ND / ND / ND	ND	2 of 9 (3.45)
KSSQTVLYTSRNKNSVA	WASTRES	QQYHRLPTS	ND / ND / ND	ND	0 of 9
KSSQSVLYESRNKCSVL	WASTRCS	QQYHRLPLS	ND / ND / ND	ND	1 of 9 (4.15)
KSSQSVTYESRNKNSVA	WASTRES	QQYHRVPNS	ND / ND / ND	ND	1 of 9 (2.79)
KSCQIVLYESRNKNSVA	WASTRES	QQYHRLPLS	ND / ND / ND	ND	1 of 9 (3.01)
KKSQSVLYESRNKNTVA	WASTREK	QQYHRLPLS	ND / ND / ND	ND	0 of 9
KSSQNVLYESRNKNSVA	WASTGES	QQRHRLPLS	ND / ND / ND	ND	3 of 9 (3.57)

Source: Engelhart et al. 2022 (doi:10.1038/s41597-022-01779-4), MIT Lincoln Laboratory and A-Alpha Bio; data file from the FLAb repository.